Data taken from publication PMC9866728, “Dosing Methods to Enable Cell-Based In Vitro Testing of Complex Substances: A Case Study with a PAH Mixture” (Toxics, 2022).
Values joined by “and” are separate entries in the source; they are usually repeats but may differ in a detail not shown here. Equal entries are not always repeated.

Settings: STOCK_10_R1-R3 (replicates) of the block 10 ug/mL MAF, 24 hr exposure; raw GC-MS/MS analyte/ISTD response ratio

## c1ccc2c(c1)-c1cccc3cccc-2c13 [Fluoranthene]
  ISTD Resp. Ratio, stock: 474.113 and 473.435
